Data published in patent publication US9808466B2, “Macrocyclic compounds as protein kinase inhibitors” (Fundación Centro Nacional de Investigaciones Oncologicas …, priority 2011, dated 2017).

Protein sequences, listed by entry. Tags and fused reporters are not part of them. Residues count along the entry.
UniProt P42336, whole entry: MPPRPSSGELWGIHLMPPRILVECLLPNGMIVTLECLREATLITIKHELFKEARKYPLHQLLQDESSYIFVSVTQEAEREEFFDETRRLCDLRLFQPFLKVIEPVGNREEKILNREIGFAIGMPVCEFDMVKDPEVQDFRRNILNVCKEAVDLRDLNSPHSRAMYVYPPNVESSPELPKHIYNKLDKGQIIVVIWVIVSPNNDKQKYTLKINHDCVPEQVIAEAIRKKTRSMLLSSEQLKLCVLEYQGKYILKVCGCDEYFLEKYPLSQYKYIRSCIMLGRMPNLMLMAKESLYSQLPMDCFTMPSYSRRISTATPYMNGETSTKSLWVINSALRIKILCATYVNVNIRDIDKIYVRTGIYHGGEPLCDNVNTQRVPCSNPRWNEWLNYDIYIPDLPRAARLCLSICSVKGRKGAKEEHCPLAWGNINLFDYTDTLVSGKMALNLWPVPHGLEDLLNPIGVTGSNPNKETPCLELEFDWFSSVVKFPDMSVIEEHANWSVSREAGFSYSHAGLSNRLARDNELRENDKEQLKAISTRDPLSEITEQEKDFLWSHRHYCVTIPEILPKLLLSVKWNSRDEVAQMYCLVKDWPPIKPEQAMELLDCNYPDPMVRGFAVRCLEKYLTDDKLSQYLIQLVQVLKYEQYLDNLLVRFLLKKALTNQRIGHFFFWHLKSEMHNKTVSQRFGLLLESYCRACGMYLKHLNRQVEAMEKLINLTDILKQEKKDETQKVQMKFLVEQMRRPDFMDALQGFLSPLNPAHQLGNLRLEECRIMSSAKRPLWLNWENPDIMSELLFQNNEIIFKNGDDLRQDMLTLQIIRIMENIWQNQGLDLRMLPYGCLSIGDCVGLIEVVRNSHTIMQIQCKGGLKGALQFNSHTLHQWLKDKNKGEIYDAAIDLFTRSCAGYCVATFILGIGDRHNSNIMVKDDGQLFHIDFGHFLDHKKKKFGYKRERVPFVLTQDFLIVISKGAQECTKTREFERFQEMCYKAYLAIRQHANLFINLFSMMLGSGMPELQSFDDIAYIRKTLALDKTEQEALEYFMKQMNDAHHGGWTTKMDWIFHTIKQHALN
UniProt P11309, whole entry: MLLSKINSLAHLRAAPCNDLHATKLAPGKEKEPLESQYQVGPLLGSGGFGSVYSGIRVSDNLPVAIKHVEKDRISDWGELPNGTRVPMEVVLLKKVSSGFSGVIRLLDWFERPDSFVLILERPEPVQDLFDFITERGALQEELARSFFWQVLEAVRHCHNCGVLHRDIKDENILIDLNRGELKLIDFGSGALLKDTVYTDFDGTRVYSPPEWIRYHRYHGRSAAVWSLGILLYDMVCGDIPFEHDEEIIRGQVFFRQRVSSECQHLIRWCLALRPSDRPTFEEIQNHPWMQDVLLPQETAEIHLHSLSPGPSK
UniProt P42345, 1360-2549 limits assumed: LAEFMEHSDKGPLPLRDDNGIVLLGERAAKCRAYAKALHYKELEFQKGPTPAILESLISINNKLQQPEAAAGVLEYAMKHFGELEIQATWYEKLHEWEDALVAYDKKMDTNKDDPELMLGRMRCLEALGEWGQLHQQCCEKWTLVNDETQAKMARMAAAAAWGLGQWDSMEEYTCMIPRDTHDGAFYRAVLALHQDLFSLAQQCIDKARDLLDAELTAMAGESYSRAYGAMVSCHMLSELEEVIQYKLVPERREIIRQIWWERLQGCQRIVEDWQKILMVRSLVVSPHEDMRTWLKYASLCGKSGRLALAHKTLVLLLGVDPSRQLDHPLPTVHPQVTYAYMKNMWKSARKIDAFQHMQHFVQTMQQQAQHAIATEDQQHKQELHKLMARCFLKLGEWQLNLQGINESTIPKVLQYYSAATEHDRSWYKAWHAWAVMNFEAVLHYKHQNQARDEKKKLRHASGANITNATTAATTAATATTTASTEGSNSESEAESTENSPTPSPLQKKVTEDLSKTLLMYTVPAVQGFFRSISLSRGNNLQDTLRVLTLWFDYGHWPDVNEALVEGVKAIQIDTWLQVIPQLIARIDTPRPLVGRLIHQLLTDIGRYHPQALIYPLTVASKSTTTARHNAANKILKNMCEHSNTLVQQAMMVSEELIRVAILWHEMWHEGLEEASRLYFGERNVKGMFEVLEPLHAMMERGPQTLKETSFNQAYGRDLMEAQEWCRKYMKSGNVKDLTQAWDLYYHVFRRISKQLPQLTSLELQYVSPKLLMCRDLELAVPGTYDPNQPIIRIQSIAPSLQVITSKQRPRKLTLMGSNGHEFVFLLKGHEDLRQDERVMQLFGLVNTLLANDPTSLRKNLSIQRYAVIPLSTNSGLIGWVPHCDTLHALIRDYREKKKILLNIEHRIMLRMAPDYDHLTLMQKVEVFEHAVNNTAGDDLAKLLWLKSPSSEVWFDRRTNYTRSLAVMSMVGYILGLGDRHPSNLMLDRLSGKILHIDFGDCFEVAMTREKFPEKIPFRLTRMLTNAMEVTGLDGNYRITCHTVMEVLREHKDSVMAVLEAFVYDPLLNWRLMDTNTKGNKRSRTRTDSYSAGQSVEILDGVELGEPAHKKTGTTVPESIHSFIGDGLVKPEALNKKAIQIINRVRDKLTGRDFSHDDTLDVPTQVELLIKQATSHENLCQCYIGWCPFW
UniProt P27986, whole entry partner: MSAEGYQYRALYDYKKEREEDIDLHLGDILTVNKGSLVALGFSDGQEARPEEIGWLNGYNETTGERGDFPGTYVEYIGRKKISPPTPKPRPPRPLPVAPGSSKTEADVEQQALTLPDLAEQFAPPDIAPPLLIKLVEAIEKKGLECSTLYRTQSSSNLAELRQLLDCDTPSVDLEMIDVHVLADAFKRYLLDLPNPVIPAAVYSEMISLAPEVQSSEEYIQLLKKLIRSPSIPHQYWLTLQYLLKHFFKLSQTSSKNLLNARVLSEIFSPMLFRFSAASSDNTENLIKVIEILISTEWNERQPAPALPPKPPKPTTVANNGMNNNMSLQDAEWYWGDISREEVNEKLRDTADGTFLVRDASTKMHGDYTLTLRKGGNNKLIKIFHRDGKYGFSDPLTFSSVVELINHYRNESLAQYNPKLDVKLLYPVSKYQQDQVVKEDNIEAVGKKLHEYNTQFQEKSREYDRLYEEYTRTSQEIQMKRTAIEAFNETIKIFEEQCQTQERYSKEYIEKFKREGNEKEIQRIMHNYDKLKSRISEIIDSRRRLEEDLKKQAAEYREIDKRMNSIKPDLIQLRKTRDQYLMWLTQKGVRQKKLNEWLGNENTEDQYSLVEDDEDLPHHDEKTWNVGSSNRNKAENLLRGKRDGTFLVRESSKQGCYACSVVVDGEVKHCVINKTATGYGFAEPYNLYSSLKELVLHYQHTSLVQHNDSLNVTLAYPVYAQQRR

Legend:
[1] = target: PI3K (p110α/p85α) (Homo sapiens, UniProt P42336); assay: PI3K activity assay (ADP Hunter Plus); conditions: read-out: PI3K alpha activity, IC50 (semi-quantitative class)
[2] = target: PIM-1 (Homo sapiens, UniProt P11309); assay: PIM-1 biochemical assay (ADP Hunter); conditions: read-out: PIM-1 activity, IC50 (semi-quantitative class); PIM1
[3] = target: mTOR (Homo sapiens, UniProt P42345); assay: mTOR assay (LanthaScreen kinase activity assay); format: biochemical; conditions: read-out: mTOR activity, IC50 (semi-quantitative class)

Compound | IC50 [1] [nM] | IC50 [2] [nM] | IC50 [3] [nM]
COc1ncc2cc1NS(=O)(=O)c1cccc(c1)C(=O)NCC(=O)NCc1cncc(c1)-c1cnc3sc-2nn13 | 100 to 1000 | 100 to 1000 | > 1000
COc1ncc2cc1NS(=O)(=O)c1cccc(c1)C(=O)NCc1cncc(c1)-c1ccnc3[nH]c-2cc13 | 100 to 1000 | 100 to 1000 | > 1000
